Results reported in ChEMBL document CHEMBL1833876 (J Med Chem, 2011).
pIC50: −log10 of the molar value.

System: R2
Assay: Antiproliferative activity against chinese hamster R2 cells expressing human PCFT assessed as inhibition of colony formation after 10 to 14 days
Format: functional, cell-based, Cricetulus griseus

SMILES: Nc1nc2[nH]cc(CCc3ccc(C(=O)N[C@@H](CCC(=O)O)C(=O)O)cc3)c2c(=O)[nH]1 [PEMETREXED]
- pIC50: 8.31
